## Yeast mating assay B: variants of the scFv Ab-14

From the AlphaSeq antibody data of Li et al. 2023 (doi:10.1038/s41467-023-39022-2), copy in the FLAb collection.

Target peptide (SARS-CoV-2 spike, HR2 region): PDVDLGDISGINAS

Each scFv is VH, the linker GGGGSGGGGSGGGGS, VL, as in the parent Ab-14, and differs from it in the CDRs of the light chain only.
VH: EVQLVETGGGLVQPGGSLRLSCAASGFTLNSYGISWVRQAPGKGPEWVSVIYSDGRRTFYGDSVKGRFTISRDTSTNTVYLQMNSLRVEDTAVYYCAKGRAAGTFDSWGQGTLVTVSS
VL: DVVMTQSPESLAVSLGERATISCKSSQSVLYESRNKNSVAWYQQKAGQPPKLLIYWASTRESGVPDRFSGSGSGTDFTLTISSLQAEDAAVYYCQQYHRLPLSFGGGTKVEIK

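The starting antibody came from a phage panning campaign against this peptide. Designed CDR sequences, proposed from the first random library and measured here. Their group label is 14L_En_HC (En: ensemble of fine-tuned language models; HC: hill climbing; a sequence that several methods proposed may carry one label only). Affinity was read by AlphaSeq, a pooled yeast mating assay with surface-displayed partners. Pairs that bind mate more often; barcode pairs of the diploids are counted by sequencing. The ratio of observed to expected reads was calibrated, replicate by replicate, on BCL2-family standards whose Kd was known from biolayer interferometry. Mating was done six times.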

Variants are written as CDR1, CDR2 and CDR3 of the light chain (limits as in the source). Parent: KSSQSVLYESRNKNSVA, WASTRES, QQYHRLPLS.
Scale: log10 of Kd in nM, estimated from mating counts; low values are strong binders.
Averages over replicates are reported, and they cover detected replicates only.
"n.d." means that the variant was in the library but no mating with the target was seen in that replicate; the authors take this as a sign of poor binding, and no number exists.
Values of this round are not directly comparable with the first-round values of the same sequences.

| CDR-L1 | CDR-L2 | CDR-L3 | log10 Kd (nM) by replicate | mean, log10 nM | control signals |
|---|---|---|---|---|---|
| NIYQSMNFLGRVMNSIA | DASTLPD | QQYHRLPLS | 0.76 0.70 1.18 1.95 0.81 0.99 | 1.07 | 1 of 18 (2.38) |
| MMSQMFEGLSTSKNPVA | QVSQREE | QQYHRLPLS | 0.46 0.66 0.04 0.38 0.76 0.89 | 0.53 | 1 of 18 (0.99) |
| KLGESTRFESSNKASIA | DNSTRES | QQYHRLPLS | 1.30 1.68 1.23 1.59 1.40 2.08 | 1.55 | 1 of 18 (1.92) |
| SIYDATGMEQRNKNPIA | DVSTRPS | QQYDRLPLS | 0.51 -0.17 -0.28 0.70 0.46 0.81 | 0.34 | 0 of 18 |
| MISDLMLKGSRNKNPIA | NASTREY | QQYHRLPLS | 0.84 1.19 1.82 1.13 2.05 1.10 | 1.35 | 0 of 18 |
| IISQVDAYESRSKNSIA | DQSTRGS | QQYDRLPLS | 0.53 0.26 0.24 0.79 0.17 0.74 | 0.46 | 0 of 18 |
| SLMQVGGYESNNKDSIA | DLRTRES | QQYHRLPLS | 0.42 0.35 0.16 0.18 -0.06 0.29 | 0.22 | 0 of 18 |
| ILSQSVLMGSHLKNSVA | QASTRFD | QQYHRLPLS | 0.90 0.51 0.73 0.25 0.27 0.46 | 0.52 | 1 of 18 (2.19) |
| KISASVNYEMVNGQSVA | QMSTREA | QQYDRLPLS | 1.07 0.93 0.63 0.84 0.91 1.21 | 0.93 | 0 of 18 |
| KLGQSAAMTSRMKNNVA | DLNERER | QQYHRLPLS | 0.69 0.28 0.31 0.19 0.35 0.17 | 0.33 | 2 of 18 (2.12) |
| TISQSTLMTGLNRNSVA | QASERIE | QQYHRLPLS | 0.71 0.25 0.33 0.45 0.50 0.36 | 0.43 | 2 of 18 (2.37) |
| KIGHGLTTEMYNRNSVA | QTETRVN | QHYHRLPLS | 1.62 1.49 2.63 2.54 3.24 n.d. | 2.30 | 1 of 18 (2.39) |
| TISQSVNMTSHGRNSVA | QAEMRET | QQYDRLPLS | 1.61 1.31 1.56 1.34 1.56 1.72 | 1.52 | 3 of 18 (3.06) |
| TISQSAQEESHNKNSVA | DLSVRGS | QQYHRLPLS | 0.18 0.31 0.20 0.49 -0.17 0.19 | 0.20 | 1 of 18 (1.85) |
| TIGQVMNWESRNGNSVA | QTSTREE | QDYDRLPLS | 0.60 1.28 0.62 0.45 0.84 1.13 | 0.82 | 2 of 18 (2.53) |
| KLREVIHVESKQKNNVA | DNSTRES | QDYHRLPLS | 2.05 1.63 1.10 1.58 1.35 1.82 | 1.59 | 0 of 18 |
| MISQSFLIGMKAQNSVA | QTSTREE | QQYDRLPLS | 0.34 0.23 0.37 0.38 0.40 0.69 | 0.40 | 1 of 18 (1.70) |
| MIGGVTNGISSNKNSVA | EQSTRES | QQYNRLPLS | 1.05 0.79 0.61 0.68 0.78 1.02 | 0.82 | 0 of 18 |
| TLTQVQGMESHNHDSVA | DLSTRGS | QQYHRLPLS | -0.10 0.14 0.04 0.04 0.03 0.19 | 0.06 | 0 of 18 |
| IISDLMLYGSRNKNPIA | NASTREY | QQYHRLPLE | 0.87 0.93 1.46 0.29 0.56 0.89 | 0.83 | 0 of 18 |
| TISDLMHMESRNVNNVA | DLVKREK | QQYHRLPLS | -0.19 -0.24 -0.45 -0.37 -0.22 -0.12 | -0.27 | 1 of 18 (4.60) |
| KVNGLMNIEQMNSKSVA | QSTTREN | QQYHRLPLS | 2.19 0.58 1.59 0.86 1.24 1.66 | 1.35 | 0 of 18 |
| KLYMSTGYESRAKDSIA | DNSTRGR | QQYHRLPLS | 1.48 0.96 1.62 1.20 1.43 1.90 | 1.43 | 1 of 18 (2.05) |
| KLLQTVMNETRNKNNVA | HMTTRED | QQYHRLPLS | 0.77 0.36 0.45 0.15 0.12 0.62 | 0.41 | 0 of 18 |
| KISMLTRFQQNAKNNIA | EMNRREA | QQYHRLPLS | 0.14 0.87 -0.24 n.d. n.d. n.d. | 0.25 | 0 of 18 |
| TISGLIGMPSRAHNSVA | NTSTRYQ | QQYHRLPLS | 1.89 1.22 1.04 1.94 1.05 0.93 | 1.34 | 1 of 18 (2.42) |
| TISQMFLGESYNRNSVA | QASTRES | QSYHRLPLS | -0.02 -0.44 -0.24 -0.44 -0.30 0.28 | -0.19 | 2 of 18 (2.28) |
| KLTMMYQHTSMNKNNIA | ERSTREE | QQYHHLPLS | 0.51 1.57 1.07 1.03 0.47 1.52 | 1.03 | 1 of 18 (1.83) |
| SIYDATAMESRNKNPIA | DVSTRPS | QQYHRLPLS | 0.46 0.31 -0.01 0.31 0.25 0.34 | 0.28 | 3 of 18 (2.19) |
| KISMMYRYESTASNNIA | EMTTRAE | QSYHRLPLS | 1.26 0.41 0.21 0.21 0.54 1.15 | 0.63 | 0 of 18 |
| IISGSTLMESRNKNSVA | NAETREY | QHYDRLPLS | 1.96 1.37 0.98 1.74 1.28 1.27 | 1.43 | 0 of 18 |
| NLYQSMNFGGRVMNSIA | DVSTLPD | QQYHRLPLS | 0.39 0.57 -0.01 0.35 0.02 0.28 | 0.27 | 0 of 18 |
| KLSVSWLFEQIEKNSVA | ERSTRES | QDYNRLPLS | n.d. 2.16 1.16 1.49 2.41 2.34 | 1.91 | 0 of 18 |
| TLADVTRQESNKKSNIA | DMSNRAA | QQYHRLPIS | 0.53 0.60 0.65 0.25 0.65 0.55 | 0.54 | 2 of 18 (2.59) |
| KLYMTVGFEQRNKSRVA | DNNTRES | QQYDRLPLS | n.d. 2.50 n.d. n.d. n.d. n.d. | 2.50 | 0 of 18 |
| KVSEMTAFLSSNRNNVA | DNSTRGS | QQYHRLPLS | 0.84 0.93 0.55 0.58 0.64 0.90 | 0.74 | 2 of 18 (2.23) |
| KLSQSVGYHSRNKSRVA | DNSTRES | QQYDRLPLS | n.d. n.d. 2.44 2.15 n.d. n.d. | 2.30 | 1 of 18 (2.77) |
| ALGDVTRMESNKKNSIA | DMSNREQ | QQYHRLPLS | n.d. 1.17 -0.55 n.d. 0.01 2.20 | 0.71 | 0 of 18 |
| KISMSYRYESQAKNSIA | EMTTRAE | QSYHRLPLS | 0.80 0.38 0.54 0.49 0.34 0.64 | 0.53 | 2 of 18 (2.62) |

Excerpt, the first 5 entries:

| CDR-L1 | CDR-L2 | CDR-L3 | log10 Kd (nM) by replicate | mean, log10 nM | control signals |
|---|---|---|---|---|---|
| NIYQSMNFLGRVMNSIA | DASTLPD | QQYHRLPLS | 0.76 0.70 1.18 1.95 0.81 0.99 | 1.07 | 1 of 18 (2.38) |
| MMSQMFEGLSTSKNPVA | QVSQREE | QQYHRLPLS | 0.46 0.66 0.04 0.38 0.76 0.89 | 0.53 | 1 of 18 (0.99) |
| KLGESTRFESSNKASIA | DNSTRES | QQYHRLPLS | 1.30 1.68 1.23 1.59 1.40 2.08 | 1.55 | 1 of 18 (1.92) |
| SIYDATGMEQRNKNPIA | DVSTRPS | QQYDRLPLS | 0.51 -0.17 -0.28 0.70 0.46 0.81 | 0.34 | 0 of 18 |
| MISDLMLKGSRNKNPIA | NASTREY | QQYHRLPLS | 0.84 1.19 1.82 1.13 2.05 1.10 | 1.35 | 0 of 18 |

As a blank, each scFv also met three strains without target: over all light chain designs, 4% of these pairings were detected, typically at 2.64 and seldom below 1.59. The control count says in how many pairings with the empty strains this scFv gave a signal, with their mean in brackets.
The parent sequence was in this pool as ten entries: three were never detected, three once, and four in most replicates, with averages from 0.34 to 2.37.
The authors' rule: three or more of the six replicates give a measured affinity, fewer mean a poor binder.